Reference: patent US20200299317A1, “Manufacturing Method of Ferric Citrate” (Tokuyama Corporation, priority 2018, published 2020)

Test: Specific surface area of ferric citrate, constant-volume nitrogen adsorption method, BET
Format: physicochemical
Experimental: The water-soluble organic solvent content in ferric citrate of Examples and Comparative examples were measured by gas chromatography (GC). A sample was introduced into GC by using a headspace (HS). The purity of ferric citrate (hereinafter, may be simply referred to as the “purity”) was measured by high performance chromatography (HPLC), and the specific surface area was measured by a nitrogen absorption method. The apparatus used in each measurement and measurement conditions are as follows.
The specific surface area of ferric citrate was measured under the following conditions.
Apparatus: specific surface area measuring apparatus (made by MicrotracBEL Corp.)
Measuring method: constant-volume nitrogen adsorption method
Sample volume: approximately 100 mg
Pretreatment temperature: 40° C.
Pretreatment time: 1 hour
In the following examples and comparative examples, when the partial pressure of nitrogen was within the range of 0.1 to 0.3, a nitrogen absorption volume at each partial pressure was measured under the above conditions, and the specific surface area of ferric citrate was analyzed and calculated from the partial pressure and the nitrogen adsorption volume by a BET method.

[1] = after reduced-pressure drying only (30° C., then 70° C. for 20 hours), no humidity control drying
[2] = ferric citrate after reduced-pressure drying followed by humidity control drying

| Substance | Specific surface area [2] | further results |
| --- | --- | --- |
| ferric citrate [Comparative Example 1, reference compound] | – | Specific surface area [1]: 40.8 m^2/g |
| ferric citrate [Comparative example 2, reference compound] | – | Specific surface area [1]: 88.9 m^2/g |
| ferric citrate [Comparative example 3, reference compound] | – | Specific surface area [1]: 24.9 m^2/g |
| ferric citrate [Comparative example 4, reference compound] | – | Specific surface area (humidity control drying (30° C., 60 RH %) of wet material containing 60.2% by mass of acetone, no reduced-pressure drying): 11.0 m^2/g |
| ferric citrate [Example 1] | 38.3 m^2/g | – |
| ferric citrate [Example 2] | 39.9 m^2/g | – |
| ferric citrate [Example 3] | 40.1 m^2/g | – |
| ferric citrate [Example 4] | 31.1 m^2/g | – |
| ferric citrate [Example 5] | 35.6 m^2/g | – |
| ferric citrate [Example 6] | 37.9 m^2/g | – |
| ferric citrate [Example 7] | 36.8 m^2/g | – |
| ferric citrate [Example 8] | 36.8 m^2/g | – |
| ferric citrate [Example 9] | 38.4 m^2/g | – |
| ferric citrate [Example 10] | 32.3 m^2/g | – |
| ferric citrate [Example 11] | 31.4 m^2/g | – |
| ferric citrate [Example 12] | 30.2 m^2/g | – |
| ferric citrate [Example 13] | 38.7 m^2/g | – |
| ferric citrate [Example 14] | 38.5 m^2/g | – |
| ferric citrate [Example 15] | 39.0 m^2/g | – |
| ferric citrate [Example 16] | 88.7 m^2/g | – |
| ferric citrate [Example 17] | 24.5 m^2/g | – |
| ferric citrate [Example 18] | 66.4 m^2/g | – |
| ferric citrate [Example 19] | 47.8 m^2/g | – |
